Reference: BindingDB's records for doi:10.1016/j.bmcl.2005.11.059 (University of Kansas, 2006)

Chains of the proteins cited; added tags and fusions are not shown.
UniProt O00206, whole entry: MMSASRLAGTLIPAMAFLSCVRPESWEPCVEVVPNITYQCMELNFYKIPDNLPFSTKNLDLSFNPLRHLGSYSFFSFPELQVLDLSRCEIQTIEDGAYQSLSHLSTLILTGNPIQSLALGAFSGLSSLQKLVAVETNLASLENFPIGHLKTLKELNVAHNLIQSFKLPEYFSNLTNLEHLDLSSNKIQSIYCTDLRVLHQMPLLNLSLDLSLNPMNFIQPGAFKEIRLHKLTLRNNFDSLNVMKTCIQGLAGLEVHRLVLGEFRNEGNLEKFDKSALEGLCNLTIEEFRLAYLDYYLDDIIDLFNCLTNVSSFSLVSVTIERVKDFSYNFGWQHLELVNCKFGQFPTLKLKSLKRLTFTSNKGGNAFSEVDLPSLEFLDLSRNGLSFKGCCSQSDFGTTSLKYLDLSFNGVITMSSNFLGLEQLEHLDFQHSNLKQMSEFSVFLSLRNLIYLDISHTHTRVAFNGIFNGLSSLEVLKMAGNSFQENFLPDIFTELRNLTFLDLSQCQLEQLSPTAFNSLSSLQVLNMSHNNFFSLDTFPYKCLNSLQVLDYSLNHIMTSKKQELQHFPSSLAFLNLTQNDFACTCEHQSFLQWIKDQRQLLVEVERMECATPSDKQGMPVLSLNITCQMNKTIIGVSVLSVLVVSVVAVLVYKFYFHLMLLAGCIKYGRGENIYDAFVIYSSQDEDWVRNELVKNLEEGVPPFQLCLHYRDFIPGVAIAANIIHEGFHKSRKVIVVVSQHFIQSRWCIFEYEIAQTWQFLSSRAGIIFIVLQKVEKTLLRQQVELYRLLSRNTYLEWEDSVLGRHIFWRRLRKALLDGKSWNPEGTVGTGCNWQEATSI

Target: Toll-like receptor 4 (Homo sapiens, UniProt O00206)
Experiment: Inhibition of induction of NF-kappaB by LPS in HEK293 cells co-transfected with TLR4, CD14 and MD2
Outline: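 HEK293 cells cotransfected with TLR4, CD14 and MD2 are cultured in medium containing fetal bovine serum and stimulated with LPS. NF-κB induction is quantified, and IC50 is the concentration inhibiting NF-κB induction by 50%.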

Work on `CCC(C)CCCCC(=O)N[C@@H](CCN)C(=O)N[C@H](C(=O)N[C@@H](CCN)C(=O)N[C@H]1CCNC(=O)[C@H]([C@@H](C)O)NC(=O)[C@H](CCN)NC(=O)[C@H](CCN)NC(=O)[C@H](CC(C)C)NC(=O)[C@@H](Cc2ccccc2)NC(=O)[C@@H](CCN)NC1=O)[C@@H](C)O` (stereo partly specified) [POLUMYXIN B] yielded an IC50 of 1230 nM.
